Values of other authors, collected in patent US20070208041A1, “Compositions for the treatment and prevention of heart disease and methods of using same” (priority 2005, published 2007).

Test system: phenylephrine-constricted rat aorta
Details: with benomyl

Compound	effect of ALDH-2 inhibitor benomyl on vasodilator response
O=[N+]([O-])OCC(CO[N+](=O)[O-])(CO[N+](=O)[O-])CO[N+](=O)[O-]	reduced the vasodilator potency, but not the efficacy
O=[N+]([O-])OCC(CO)(CO[N+](=O)[O-])CO[N+](=O)[O-]	reduced the vasodilator potency, but not the efficacy

This is a selection: effects in other tests are not listed, and their absence says nothing.
